## Yeast mating assay B: variants of the scFv Ab-14

Reference: Li et al. 2023, doi:10.1038/s41467-023-39022-2. File: FLAb, binding data.

Target: peptide PDVDLGDISGINAS, taken from heptad repeat 2 (HR2) of SARS-CoV-2 spike.

Ab-14 is the parent antibody, in scFv form: VH, then a (GGGGS)3 linker, then VL. The heavy chain is unchanged in all variants.
VH: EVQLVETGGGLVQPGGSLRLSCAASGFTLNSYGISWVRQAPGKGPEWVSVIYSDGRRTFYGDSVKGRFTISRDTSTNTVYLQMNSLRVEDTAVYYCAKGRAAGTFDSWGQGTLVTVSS
VL: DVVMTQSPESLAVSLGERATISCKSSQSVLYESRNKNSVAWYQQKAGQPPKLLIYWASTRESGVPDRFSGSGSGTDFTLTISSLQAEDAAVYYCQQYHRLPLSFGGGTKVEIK

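Phage display of a naive human antibody library on the peptide gave the parent. The variants were designed computationally from a first round of random CDR variants and then made and measured. Several design methods are mixed in this list. Affinity was read by AlphaSeq, a pooled yeast mating assay with surface-displayed partners. After mating in shaken culture at 30 °C for 16 h, diploids were selected and their barcode pairs sequenced. Each replicate has its own calibration line, from reference interactions of the BCL2 family. There are six technical replicates.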

Each variant is given by its three light chain CDRs, as the data file delimits them; those of the parent are KSSQSVLYESRNKNSVA, WASTRES, QQYHRLPLS. Affinities are written as log10 Kd with Kd in nM; a lower number is a better binder. Replicates are averaged; those with no signal do not enter the mean. Where no diploid with the target was found in any replicate, the entry reads "not detected": below detection, most likely a poor binder, though not proof of it. Values of this round are not directly comparable with the first-round values of the same sequences.

CDR-L1 | CDR-L2 | CDR-L3 | mean, log10 nM | seen in
QLTMITGHVSMIKNNVA | EMETREN | QQYDRLPLS | 1.30 | 6 of 6
KISQSEYYEDRNKMSVA | SASQRLS | QQYHRLPLS | 0.06 | 6 of 6
KLMQSDLLESRNVNNVA | QASQREL | QDYHRLPLS | 0.24 | 6 of 6
CSLQSVLYESRNNNSPA | HASTRED | QQYHRLPLS | not detected | 0 of 6
KLSAFYRMESRNKNSVA | DNSTRES | QQYDRLPLS | 1.68 | 5 of 6
KLWAYFQGLEQYMQNVA | DGSYVST | QQYDRLPLS | 1.55 | 2 of 6
KFSQHVLYESRNKNSVA | WASTRPS | QQYHRLPLS | 1.51 | 6 of 6
KLSQSDLYESRNKNSVA | GASTRLS | QQYHRLPLS | -0.06 | 6 of 6
KVQQSQLYESRNKNSVA | QASTRES | QQYHRLPLS | -0.02 | 6 of 6
SITQLVAYGNRNKSSVA | QMSTRES | QQYDRLPLS | 1.65 | 6 of 6
QSSQSFLYESRNKNSVA | NASTRES | QQYHRLPLS | 0.24 | 6 of 6
KLSQSHLYEERNKNNVA | SASQREW | QQYHRLPLS | -0.54 | 6 of 6
KSSISVLYESENKNSVA | NASQRMS | QQYHRLPLS | -0.10 | 6 of 6
FMEMDFQENSGNHNSIA | SEEVKTR | QHYARLPLS | not detected | 0 of 6
KLDQSVLYESRNKNSVA | NASTRMS | QQYHRLPLS | -0.12 | 6 of 6
KLGQGVLDESRNKNSVA | RASTRES | QQYHRLPLS | 0.79 | 6 of 6
IIEQGQWEQEQNQNAMA | DGETRMR | QQYYKLPLV | 0.47 | 6 of 6
KVSQSQWYESRNKNSVA | NASTRES | QQYHRLPLS | 0.23 | 6 of 6
KFSYVYEMVNTAKESIA | DAHTVQM | QQYSRLPLA | 0.83 | 6 of 6
VFQDQWDGHTNTHNSVA | NVDEKME | QQYYRLPLL | -0.09 | 6 of 6
KLSQSNKYESRMKNSVA | NASQREC | QQYHRLPLS | 0.59 | 6 of 6
KISINQMHYNKMRSAIA | NTNQKAM | QQYFHLPLM | 0.78 | 6 of 6
KISMLYNYESVNKNSIA | EMTTRES | QHYHRLPLS | 0.46 | 6 of 6
HLYTGNYTQKNRTNAIA | DARLRVQ | QQYSRLPIM | 2.08 | 2 of 6
KSSQSVLYESRNKNSVA | WASCRES | QQYHRLPLS | not detected | 0 of 6
KSSMSWEYESRNSNSVA | HASTRED | QQYHRLPLA | 0.12 | 6 of 6
KSSQGVLYESQNKNSVA | GASTRPF | YQYVRLPLS | 3.72 | 1 of 6
KLSQSVLYESRNKNSVA | EAETRES | QQYHRLPLS | -0.07 | 6 of 6
LLQQSEGYESRNKNSVA | DASTRES | QAYHRLPLS | 0.30 | 6 of 6
AVSYQLRPGREIQNPIA | EGSHRAA | QQYDRLPLG | 0.49 | 6 of 6
KIGHGLTTESRNKNSVA | QTETRES | QHYHRLPLS | 2.89 | 2 of 6
MISQMYNMGQFAINSVA | QASERNN | QQYDRLPLM | 1.41 | 6 of 6
VLSDTIENMASRADNIA | DETETSY | QQYYRLPLS | 2.35 | 3 of 6
KSSQSVLYESRNKNSVA | WASTRES | QQYARLPLS | 2.17 | 5 of 6
KLRQQTLYESRNKNSVA | SASTREE | QQYHRLPLS | 0.24 | 6 of 6
MIYGAQRELGLAANSIA | DNVTRYN | QQYERLPLS | 2.74 | 6 of 6

Further variants, results first:

mean, log10 nM | seen in | CDR-L1 | CDR-L2 | CDR-L3
1.15 | 1 of 6 | KLSLFSLHGDLPWSAVA | NEVVKLA | QQYFRLPIH
-0.03 | 6 of 6 | KLSQSQLYESRNKNSVA | SASQRES | QQYHRLPLS
1.01 | 6 of 6 | MIAGSLESQEANQAPVA | SATCREP | QQYFQLPLM
1.25 | 6 of 6 | KVSQSVLQGDRNKSSVA | QASTREM | QQYHRLPLS
-0.09 | 6 of 6 | KVSQSWLYESRNKNSVA | QASQRES | QQYHRLPLS
1.12 | 6 of 6 | KSSQSYHYESRNKNSVA | HASTRES | QQYHRLPLS
0.48 | 6 of 6 | QLEQDQFPMGKGWHSIA | NATTLVA | QQYYYLPLS
0.68 | 6 of 6 | MISSISSMGQFAKNSVA | QASLRND | QQYDRLPLT
0.70 | 6 of 6 | KISMVMENQLKNRNSVA | ELVTRVN | QQYNRLPLS
not detected | 0 of 6 | KLQQESDNMNDMQNSVA | EESMVQY | QHYWRLPLT
2.01 | 6 of 6 | MISQIYNMGQFAINSVA | QASLRND | QQYDRLPLT
-0.25 | 6 of 6 | KLSQSVLYEERNSNSVA | NASTRMS | QQYHRLPLS
0.70 | 6 of 6 | MLSQMTGLGMKASNSVA | QASMRFD | QQYHRLPLI
0.89 | 6 of 6 | TIGAATLEESRNKNSVA | EMSLREN | QSYNRLPLS
-0.36 | 6 of 6 | KLSQSSLYDSRNKNSVA | NASTRES | QQYHRLPLS
1.92 | 5 of 6 | KSSQSVLYESENKNSVA | WAYTRES | QQYHRLPLS
1.59 | 6 of 6 | HLTEQNFDGERRAYNIA | AGVKHSY | QQYHRLPLM
0.11 | 6 of 6 | NVGGEDPGQWHMKDSIA | GSSLRAE | QQYWRLPLM
-0.29 | 6 of 6 | KVSQSWLYESRNKNAVA | NASTRES | QQYHRLPLS
0.25 | 6 of 6 | KLLQSVQYGSRALNSVA | QMETRED | QQYNRLPLS
-0.10 | 6 of 6 | TLGDVTRMESNKKNSIA | DMSNRED | QQYHRLPLS
1.73 | 6 of 6 | KIAATVLYESGNANSVA | QNSTREQ | QQYHRLPLS
0.87 | 6 of 6 | KLSATYRYESQNSNSIA | EMSTRES | QCYHRLPLS
-0.13 | 6 of 6 | KLSYSWLYESRNKNSVA | GASTRES | QQYHRLPLS
0.70 | 6 of 6 | KLLQVTENMSLNRNSVA | HMSTRED | QQYHRLPLS
0.32 | 5 of 6 | MFSQMLMLGTKAKNSVA | QASMRFN | QQYHRLPLI
2.73 | 3 of 6 | KLLQEVTGHSRQRNSVA | HNSTRED | QQYDRLPLI
-0.29 | 6 of 6 | KLGSSVAMTSRNKNNVA | DLNERER | QQYHRLPLS
0.84 | 6 of 6 | KLGSMVLLEHGNKNSIA | QQSTREE | QQYDRLPLS
not detected | 0 of 6 | VSSQSTLEESRNKNSVA | WASTRES | QQYFRLELW
0.27 | 6 of 6 | KLSQSELYESRNKNSVA | GASTRCS | QQYHRLPLS
0.78 | 6 of 6 | KLHQEVGYESRNKNSVA | GASQRES | QQYHRLPLS
-0.60 | 6 of 6 | KMSQSDLYESRNKNSVA | DASTRES | QQYHRLPLS
0.33 | 6 of 6 | KLPQSTLYESRNKNSVA | NASTRLS | QQYHRLPLS
not detected | 0 of 6 | HMSQVTMYGSWNKNSVA | QTSTREE | QQYDRLPLS
0.12 | 6 of 6 | KMSQSQLYEERNSNAVA | QASQRMS | QQYHRLPLS
-0.10 | 6 of 6 | KHSQSVDYESRNKASVA | DASTRMS | QQYHRLPLS

Top 7 of the variants detected in all replicates, tightest first:

{"CDR-L1": "KMSQSDLYESRNKNSVA", "CDR-L2": "DASTRES", "CDR-L3": "QQYHRLPLS", "mean, log10 nM": "-0.60", "seen in": "6 of 6"}
{"CDR-L1": "KLSQSHLYEERNKNNVA", "CDR-L2": "SASQREW", "CDR-L3": "QQYHRLPLS", "mean, log10 nM": "-0.54", "seen in": "6 of 6"}
{"CDR-L1": "KLSQSSLYDSRNKNSVA", "CDR-L2": "NASTRES", "CDR-L3": "QQYHRLPLS", "mean, log10 nM": "-0.36", "seen in": "6 of 6"}
{"CDR-L1": "KVSQSWLYESRNKNAVA", "CDR-L2": "NASTRES", "CDR-L3": "QQYHRLPLS", "mean, log10 nM": "-0.29", "seen in": "6 of 6"}
{"CDR-L1": "KLGSSVAMTSRNKNNVA", "CDR-L2": "DLNERER", "CDR-L3": "QQYHRLPLS", "mean, log10 nM": "-0.29", "seen in": "6 of 6"}
{"CDR-L1": "KLSQSVLYEERNSNSVA", "CDR-L2": "NASTRMS", "CDR-L3": "QQYHRLPLS", "mean, log10 nM": "-0.25", "seen in": "6 of 6"}
{"CDR-L1": "KLSYSWLYESRNKNSVA", "CDR-L2": "GASTRES", "CDR-L3": "QQYHRLPLS", "mean, log10 nM": "-0.13", "seen in": "6 of 6"}

Three control strains display no target. For all light chain designs, 4% of the pairings with them gave a signal, with a median of 2.64 and one signal in twenty below 1.59, so weak values seen in few replicates may be background. The authors' rule: three or more of the six replicates give a measured affinity, fewer mean a poor binder.